The chains behind the UniProt entries cited, without tags or fusion partners.
UniProt P68400, whole entry, looked up: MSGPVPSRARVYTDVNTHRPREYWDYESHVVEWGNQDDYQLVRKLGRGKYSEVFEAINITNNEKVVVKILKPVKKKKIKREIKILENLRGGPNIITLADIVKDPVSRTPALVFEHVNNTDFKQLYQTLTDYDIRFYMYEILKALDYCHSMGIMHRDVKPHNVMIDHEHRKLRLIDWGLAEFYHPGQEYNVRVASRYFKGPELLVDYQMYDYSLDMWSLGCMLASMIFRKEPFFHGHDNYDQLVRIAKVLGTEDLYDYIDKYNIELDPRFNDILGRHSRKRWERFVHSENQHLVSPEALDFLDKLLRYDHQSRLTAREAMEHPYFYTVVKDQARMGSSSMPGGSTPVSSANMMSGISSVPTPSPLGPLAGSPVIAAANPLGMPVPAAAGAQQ

According to ChEMBL document CHEMBL5634157, “Design and synthesis of certain 7-Aryl-2-Methyl-3-Substituted Pyrazolo{1,5-a}Pyrimidines as multikinase inhibitors” (Eur J Med Chem, 2023):

Molecular target: Casein kinase II subunit alpha (Homo sapiens, UniProt P68400)
Assay: Inhibition of CK2alpha in human HCT-116 cells by Western blotting analysis
Format: cell-based

- inhibition: Active
SMILES: COc1ccc(-c2ccnc3c(-c4noc(C)n4)c(C)nn23)cc1

Active and inactive are the calls of the source. The rule behind the calls is not given here.
